From patent EP3339324A1, “ANTI-ADRENOMEDULLIN (ADM) ANTIBODY OR ANTI-ADM ANTIBODY FRAGMENT OR ANTI-ADM NON-IG SCAFFOLD FOR USE IN IN[…] THERAPY OF […] A PATIENT IN NEED THEREOF” (sphingotec GmbH, priority 2016, dated 2018)

The chains behind the UniProt entries cited, without tags or fusion partners. Residues count along the entry.
UniProt P35318, 95-146: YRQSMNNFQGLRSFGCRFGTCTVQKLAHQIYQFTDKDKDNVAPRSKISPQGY

Molecular target: hADM (Homo sapiens, UniProt P35318)
Settings: human Citrate plasma, 10nM hADM, 24 °C, absence of NT-H

- half-life of hADM alone: 7.8 h
SMILES: CC[C@H](C)[C@H](NC(=O)[C@H](CCC(N)=O)NC(=O)[C@H](Cc1c[nH]cn1)NC(=O)[C@H](C)NC(=O)[C@H](CC(C)C)NC(=O)[C@H](CCCCN)NC(=O)[C@H](CCC(N)=O)NC(=O)[C@@H](NC(=O)[C@@H](NC(=O)[C@@H]1CSSC[C@H](NC(=O)CNC(=O)[C@H](Cc2ccccc2)NC(=O)[C@H](CO)NC(=O)[C@H](CCCNC(=N)N)NC(=O)[C@H](CC(C)C)NC(=O)CNC(=O)[C@H](CCC(N)=O)NC(=O)[C@H](Cc2ccccc2)NC(=O)[C@H](CC(N)=O)NC(=O)[C@H](CC(N)=O)NC(=O)[C@H](CCSC)NC(=O)[C@H](CO)NC(=O)[C@H](CCC(N)=O)NC(=O)[C@H](CCCNC(=N)N)NC(=O)[C@@H](N)Cc2ccc(O)cc2)C(=O)N[C@@H](CCCNC(=N)N)C(=O)N[C@@H](Cc2ccccc2)C(=O)NCC(=O)N[C@@H]([C@@H](C)O)C(=O)N1)[C@@H](C)O)C(C)C)C(=O)N[C@@H](Cc1ccc(O)cc1)C(=O)N[C@@H](CCC(N)=O)C(=O)N[C@@H](Cc1ccccc1)C(=O)N[C@H](C(=O)N[C@@H](CC(=O)O)C(=O)N[C@@H](CCCCN)C(=O)N[C@@H](CC(=O)O)C(=O)N[C@@H](CCCCN)C(=O)N[C@@H](CC(=O)O)C(=O)N[C@@H](CC(N)=O)C(=O)N[C@H](C(=O)N[C@@H](C)C(=O)N1CCC[C@H]1C(=O)N[C@@H](CCCNC(=N)N)C(=O)N[C@@H](CO)C(=O)N[C@@H](CCCCN)C(=O)N[C@H](C(=O)N[C@@H](CO)C(=O)N1CCC[C@H]1C(=O)N[C@@H](CCC(N)=O)C(=O)NCC(=O)N[C@@H](Cc1ccc(O)cc1)C(N)=O)[C@@H](C)CC)C(C)C)[C@@H](C)O [hADM]
